This assay concerns the target human ABCB1 (P-glycoprotein), Avi-tagged and biotinylated (Homo sapiens, UniProt P08183, biotin (BirA, on the Avi tag)). The assay is described as follows: ELISA. For orientation: An ELISA detects its analyte on a solid surface through an enzyme-linked reagent.

Protein sequences, listed by entry. Tags and fused reporters are not part of them.
UniProt P08183, whole entry: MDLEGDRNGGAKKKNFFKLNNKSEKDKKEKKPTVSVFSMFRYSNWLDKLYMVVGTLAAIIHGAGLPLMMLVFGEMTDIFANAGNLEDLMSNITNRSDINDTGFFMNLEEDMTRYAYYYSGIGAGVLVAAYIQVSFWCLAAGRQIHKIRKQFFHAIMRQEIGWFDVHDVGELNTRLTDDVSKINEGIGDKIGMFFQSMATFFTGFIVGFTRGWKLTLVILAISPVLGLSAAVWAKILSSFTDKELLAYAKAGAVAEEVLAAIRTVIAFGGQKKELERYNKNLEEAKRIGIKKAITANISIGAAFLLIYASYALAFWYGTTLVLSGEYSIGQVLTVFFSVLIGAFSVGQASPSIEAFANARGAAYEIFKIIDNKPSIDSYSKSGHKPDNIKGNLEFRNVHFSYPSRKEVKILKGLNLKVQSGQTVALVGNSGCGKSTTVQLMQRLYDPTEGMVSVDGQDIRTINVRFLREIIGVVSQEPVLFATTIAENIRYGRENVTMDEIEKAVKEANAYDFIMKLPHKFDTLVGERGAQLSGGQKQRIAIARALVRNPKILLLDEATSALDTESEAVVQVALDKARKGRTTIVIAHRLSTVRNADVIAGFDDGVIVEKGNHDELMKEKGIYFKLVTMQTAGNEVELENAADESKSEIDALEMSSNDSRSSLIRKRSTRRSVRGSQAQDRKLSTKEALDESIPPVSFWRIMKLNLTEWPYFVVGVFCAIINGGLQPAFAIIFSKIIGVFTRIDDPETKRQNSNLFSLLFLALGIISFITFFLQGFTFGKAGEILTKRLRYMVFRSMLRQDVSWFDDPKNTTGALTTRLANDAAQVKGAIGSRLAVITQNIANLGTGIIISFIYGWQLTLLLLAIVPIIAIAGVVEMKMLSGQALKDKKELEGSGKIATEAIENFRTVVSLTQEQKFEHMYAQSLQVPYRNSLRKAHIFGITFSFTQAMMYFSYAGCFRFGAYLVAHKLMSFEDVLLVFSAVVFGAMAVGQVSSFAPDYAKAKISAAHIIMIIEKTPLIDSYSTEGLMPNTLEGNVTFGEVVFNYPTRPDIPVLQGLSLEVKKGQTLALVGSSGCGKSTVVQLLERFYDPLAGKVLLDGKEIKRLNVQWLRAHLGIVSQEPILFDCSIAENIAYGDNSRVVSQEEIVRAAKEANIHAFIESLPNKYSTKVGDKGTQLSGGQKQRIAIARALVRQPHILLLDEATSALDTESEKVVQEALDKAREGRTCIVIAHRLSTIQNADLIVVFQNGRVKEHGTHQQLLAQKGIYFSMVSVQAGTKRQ

B1: UIC2 antibody (antibody, V domains shown)
VH: EVQLQESGPELVKTGASVKISCKASGYSFSNYYIHWVKQSHGKSLEWIGFISCYNGATFYNQKFKGKATFTVDNSSSTAYMKFNSLTFEDSAVYYCARLPIQFGNFYPMDYWGQGTTVTVSS
VL: QVVMTQSPLSLPVSLGDQASISCRSSQSLLHSNGNTYLHWYLQKPGQSPKLLIYKVSNRFSGVPDRFSGSGSGTDFTLKISRVEAEDLGVYFCSQSTHIPPWTFGGGTKLDIK
Consider B1, for which the binding result is “binds”.

The values are drawn from paper PMC5834697 (Proceedings of the National Academy of Sciences of the …, 2018).
